Source: US10301371B2, “Cyclic monomer and dimer peptides having integrin antagonist activity” (Protagonist Therapeutics, Inc., priority 2014, dated 2019)

Target: T1, α4β7 (RPMI 8866 cells) (Homo sapiens, UniProt P13612+P26010)
T1 construct: host or cells: RPMI 8866 cells
T1 sequence (P13612 34-1032): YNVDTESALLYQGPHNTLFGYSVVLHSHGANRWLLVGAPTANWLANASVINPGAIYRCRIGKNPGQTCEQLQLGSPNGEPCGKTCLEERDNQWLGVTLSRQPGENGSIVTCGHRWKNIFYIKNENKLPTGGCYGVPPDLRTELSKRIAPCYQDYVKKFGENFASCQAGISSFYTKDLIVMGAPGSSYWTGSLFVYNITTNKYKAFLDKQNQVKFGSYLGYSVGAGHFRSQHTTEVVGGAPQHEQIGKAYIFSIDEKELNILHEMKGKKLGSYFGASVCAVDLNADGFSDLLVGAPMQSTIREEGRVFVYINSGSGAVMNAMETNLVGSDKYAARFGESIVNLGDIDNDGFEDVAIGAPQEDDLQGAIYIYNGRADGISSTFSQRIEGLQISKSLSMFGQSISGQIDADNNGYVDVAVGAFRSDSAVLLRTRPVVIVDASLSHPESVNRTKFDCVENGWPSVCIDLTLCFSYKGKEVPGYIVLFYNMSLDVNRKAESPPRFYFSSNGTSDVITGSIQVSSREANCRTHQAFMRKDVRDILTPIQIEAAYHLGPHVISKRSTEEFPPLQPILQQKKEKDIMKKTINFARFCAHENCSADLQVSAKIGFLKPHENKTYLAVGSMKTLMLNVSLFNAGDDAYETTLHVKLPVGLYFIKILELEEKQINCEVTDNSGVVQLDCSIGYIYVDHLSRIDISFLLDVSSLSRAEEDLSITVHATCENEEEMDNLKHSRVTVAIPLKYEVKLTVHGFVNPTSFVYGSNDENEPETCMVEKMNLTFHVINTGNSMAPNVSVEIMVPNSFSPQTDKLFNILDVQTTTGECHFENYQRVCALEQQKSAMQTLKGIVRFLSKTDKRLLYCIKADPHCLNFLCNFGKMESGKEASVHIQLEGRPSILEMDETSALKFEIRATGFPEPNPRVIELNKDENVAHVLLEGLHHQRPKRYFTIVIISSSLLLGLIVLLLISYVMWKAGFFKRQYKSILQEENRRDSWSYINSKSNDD
T1 sequence (P26010 20-798): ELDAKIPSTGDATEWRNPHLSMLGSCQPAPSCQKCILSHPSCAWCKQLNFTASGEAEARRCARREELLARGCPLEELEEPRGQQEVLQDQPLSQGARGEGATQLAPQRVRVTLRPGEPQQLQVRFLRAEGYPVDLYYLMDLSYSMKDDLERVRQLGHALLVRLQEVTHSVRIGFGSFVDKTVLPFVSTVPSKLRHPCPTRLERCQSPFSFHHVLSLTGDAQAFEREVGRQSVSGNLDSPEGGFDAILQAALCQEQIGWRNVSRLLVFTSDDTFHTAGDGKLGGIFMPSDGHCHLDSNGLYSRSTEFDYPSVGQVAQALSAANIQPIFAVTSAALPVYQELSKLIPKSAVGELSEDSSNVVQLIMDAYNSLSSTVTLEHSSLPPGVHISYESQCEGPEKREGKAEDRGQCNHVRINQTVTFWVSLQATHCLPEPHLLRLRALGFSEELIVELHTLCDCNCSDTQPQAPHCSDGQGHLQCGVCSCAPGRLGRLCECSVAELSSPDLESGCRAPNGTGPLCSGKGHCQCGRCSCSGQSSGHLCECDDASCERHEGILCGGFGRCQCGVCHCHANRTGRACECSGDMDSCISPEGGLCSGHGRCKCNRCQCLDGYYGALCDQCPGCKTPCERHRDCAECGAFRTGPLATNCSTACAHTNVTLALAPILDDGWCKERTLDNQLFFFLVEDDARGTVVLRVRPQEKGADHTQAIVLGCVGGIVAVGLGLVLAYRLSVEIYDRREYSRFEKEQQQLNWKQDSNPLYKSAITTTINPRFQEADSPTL
Assay: α4β7-MAdCAM Cell Adhesion Assay
Type: cell-based
Conditions: potency, read-out: Cell Adhesion A4B7
Protocol: α4β7-MAdCAM Cell Adhesion Assay
RPMI 8866 cells (Sigma #95041316) are cultured in RPMI 1640 HEPES medium (Invitrogen #22400-089) supplemented with 10% serum (Fetal Bovine Serum, Invitrogen #16140-071), 1 mM sodium pyruvate (Invitrogen #11360-070), 2 mM L-glutamine (Invitrogen #25030-081) and Penicillin-Streptomycin (Invitrogen #15140-122) at 100 units of penicillin and 100 lug of streptomycin per ml. The cells are washed two times in DMEM medium (ATCC #30-2002) supplemented with 0.1% BSA, 10 mM HEPES pH 7 and 1 mM MnCl2. The cells are re-suspended in supplemented DMEM medium at a density of 4×10^6 cells/ml.
A Nunc MaxiSorp plate was coated with rh MAdCAM-1/Fc Chimera (R&D #6065-MC) at 200 ng per well in 50 ul per well in 1×PBS and incubated at 4° C. overnight. The solution was then removed by shaking, blocked with 250 ul per well PBS containing 1% BSA, and incubated at 37° C. for 1 hr. The solution was removed by shaking. Peptides are diluted by serial dilution in a final volume of 50 ul per well (2× concentration). To each well, 50 ul of cells (200,000 cells) are added and the plate is incubated at 37° C., 5% CO2 for 30-45 min to allow cell adhesion. The wells are washed manually three times (100 ul per wash) with supplemented DMEM. After the final wash, 100 ul/well of supplemented DMEM and 10 ul/well of MTT reagent (ATTC cat#30-1010K) are added. The plate is incubated at 37° C., 5% CO2 for 2-3 hrs until a purple precipitate is visible. 100 ul of Detergent Reagent (ATTC cat#30-1010K) is added to each well. The plate is covered from the light, wrapped in Parafilm to prevent evaporation, and left overnight at room temperature in the dark. The plate is shaken for 5 min and the absorbance at 570 nm is measured. To calculate the dose response, the absorbance value of control wells not containing cells is subtracted from each test well.

CC(C)C[C@@H]1NC(=O)[C@H]([C@@H](C)O)NC(=O)[C@H](CC(=O)O)NC(=O)[C@H](CO)NC(=O)[C@H](CCCNC(=N)N)N(C)C(=O)[C@@H](C)NC(=O)[C@@H](CCC(=O)O)NC1=O [compound 484]
IC50: > 1 µM

CC(C)C[C@@H]1NC(=O)[C@H]([C@@H](C)O)NC(=O)[C@H](CC(=O)O)NC(=O)[C@H](CO)NC(=O)[C@H](CCCNC(=N)N)N(C)C(=O)[C@@H](C)NC(=O)[C@@H](CC(N)=O)NC1=O [compound 479]
IC50: > 10 µM

CC(C)C[C@@H]1NC(=O)[C@H]([C@@H](C)O)NC(=O)[C@H](CC(=O)O)NC(=O)[C@H](CO)NC(=O)[C@H](CCCNC(=N)N)N(C)C(=O)[C@@H](Cc2ccccc2)NC(=O)[C@@H](C)NC1=O [compound 495]
IC50: > 10 µM

CC(C)C[C@@H]1NC(=O)[C@H]([C@@H](C)O)NC(=O)[C@H](CC(=O)O)NC(=O)[C@H](CO)NC(=O)[C@H](CCCNC(=N)N)N(C)C(=O)[C@@H](C)NC(=O)[C@@H](C)NC1=O [compound 477]
IC50: > 10 µM
